Values of other authors, collected in article PMC1523333.

Target: actin filament barbed end (Oryctolagus cuniculus) (UniProt P68135)

Capping protein (CapZ) (from UniProt P13127)
Kd: 1 nM
